# According to patent EP0044955B1, “Liquid herbicide mixtures” (BASF Aktiengesellschaft, priority 1980, dated 1982):
# Experiment: Solubility of Substanz 1 and Substanz 2 in solvents at room temperature
# Assay type: physicochemical
# Source text: Es wurde gefunden, daß eine flüssige Herbizidmischung auf der Grundlage eines Pyridazonderivats und eines Biscarbamats die obengenannten Bedingungen erfüllt, wenn sie eine Lösung der Wirkstoffe in einem Säureamid der allgemeinen Formel [drawing 4] enthält, in der R^1 einen Alkylrest mit bis zu 8 C-Atomen oder einen gegebenenfalls durch Methyl oder Äthyl substituieren Phenylrest und R^2, R^3 je einen Alkylrest mit zusammen bis zu 8 C-Atomen bedeuten und das Säureamid insgesamt 8 bis 15 C-Atome enthält. Beispiele von Säureamiden sind in der Tabelle 4 zusammengefaßt. Bestimmt wurden die Löslichkeiten der Substanzen 1 (Chloridazon) und 2 (Biscarbamat) wie sie in Tabelle 1 aufgeführt sind, sowie die Wasserlöslichkeit der Lösungsmittel.
smiles,measurement,setting,value
"Nc1cnn(-c2ccccc2)c(=O)c1Cl [Substanz 1, 1-Phenyl-4-amino-5-chlor-pyridazon-(6), reference compound]",Löslichkeit in % (g Substanz in 100 g Lösung bei Raumtemperatur (RT 20°C)),in Cyclohexanon,"7,0%"
same,Löslichkeit in % (g Substanz in 100 g Lösung bei Raumtemperatur (RT 20°C)),in Dimethylformamid,"22,1%"
same,Löslichkeit in % (g Substanz in 100 g Lösung bei Raumtemperatur (RT 20°C)),in Dimethylsulfoxid,"29,3%"
same,Löslichkeit in % (g Substanz in 100 g Lösung bei Raumtemperatur (RT 20°C)),in Isophoron,"6,0%"
same,Löslichkeit in % (g Substanz in 100 g Lösung bei Raumtemperatur (RT 20°C)),in N-Methylpyrrolidon,"22,5%"
same,Löslichkeit in (%),"in Säureamid Nr. 1, Rt","8,7%"
same,Löslichkeit in (%),"in Säureamid Nr. 2, Rt","13,5%"
same,Löslichkeit in (%),"in Säureamid Nr. 3, Rt","12,2%"
same,Löslichkeit in (%),"in Säureamid Nr. 4, Rt","7,8%"
same,Löslichkeit in (%),"in Säureamid Nr. 5, Rt","10,8%"
same,Löslichkeit in (%),"in Säureamid Nr. 6, Rt","8,1%"
same,Löslichkeit in (%),"in Säureamid Nr. 7, Rt","10,4%"
same,Löslichkeit in (%),"in Säureamid Nr. 8, Rt","9,6%"
same,Löslichkeit in (%),"in Säureamid Nr. 9, Rt","10,8%"
same,Löslichkeit in (%),"in Säureamid Nr. 10, Rt","10,8%"
same,Löslichkeit in (%),"in Säureamid Nr. 11, Rt","8,6%"
same,Löslichkeit in (%),"in Säureamid Nr. 12, Rt","8,3%"
same,Löslichkeit in (%),"in Säureamid Nr. 13, Rt","9,6%"
